Measured values as given in article PMC6718946 (Toxicology Reports, 2019).
Values joined by “and” are separate entries in the source; they are usually repeats but may differ in a detail not shown here. Identical values can stand only once. Like-named read-outs stand apart in the source and are kept apart here.

Sequences of proteins named here, by UniProt entry; tags and fusion partners are left off. Residues count along the entry.
UniProt O42275, 24-633: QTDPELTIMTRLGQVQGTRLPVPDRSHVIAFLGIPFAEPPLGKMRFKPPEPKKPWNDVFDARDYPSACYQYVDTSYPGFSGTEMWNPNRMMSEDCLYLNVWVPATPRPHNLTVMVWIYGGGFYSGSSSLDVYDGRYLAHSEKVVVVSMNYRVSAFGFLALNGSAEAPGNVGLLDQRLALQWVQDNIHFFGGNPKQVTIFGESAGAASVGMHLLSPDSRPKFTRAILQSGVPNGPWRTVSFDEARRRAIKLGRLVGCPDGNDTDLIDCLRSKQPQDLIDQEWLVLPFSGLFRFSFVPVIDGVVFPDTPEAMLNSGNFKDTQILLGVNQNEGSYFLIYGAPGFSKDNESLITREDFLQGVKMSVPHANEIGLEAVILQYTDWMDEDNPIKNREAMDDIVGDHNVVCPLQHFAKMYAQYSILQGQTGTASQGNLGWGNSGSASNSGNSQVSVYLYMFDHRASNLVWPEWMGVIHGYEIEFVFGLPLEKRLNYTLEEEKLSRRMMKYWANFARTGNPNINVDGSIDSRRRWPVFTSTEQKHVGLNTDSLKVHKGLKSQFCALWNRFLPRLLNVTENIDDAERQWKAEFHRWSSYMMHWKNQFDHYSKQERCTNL

Biological target: acetylcholinesterase (AChE) (Electrophorus electricus, UniProt O42275)
Details: for IC50: estimated from Fig. 1; for Ki: read-out: Ki (inhibition constant), Lineweaver-Burk analysis

| Substance | IC50 (30 °C, pH 8.0, 1.25% DMSO) | IC50 (expressed in g L^−1) | IC50 (expressed in ppm) | Ki |
| --- | --- | --- | --- | --- |
| 1-Hydroxyquinopimaric acid [Compound U-201] | ~7.81 mM and 7.81 mM | ≈ 2.9 g L^−1 | 2990 ppm | 3.89 mM |
| Cytisine-12-carbamide [Compound A-36] | – | – | > 3000 ppm | 6.71 mM |
